Experimental data reported in patent publication US20240116926A1, “HETEROAROMATIC COMPOUNDS” (AstraZeneca AB, priority 2022, published 2024).

Protein sequences, listed by entry. Tags and fused reporters are not part of them. Residues count along the entry.
UniProt Q15561, 217-434 limits assumed: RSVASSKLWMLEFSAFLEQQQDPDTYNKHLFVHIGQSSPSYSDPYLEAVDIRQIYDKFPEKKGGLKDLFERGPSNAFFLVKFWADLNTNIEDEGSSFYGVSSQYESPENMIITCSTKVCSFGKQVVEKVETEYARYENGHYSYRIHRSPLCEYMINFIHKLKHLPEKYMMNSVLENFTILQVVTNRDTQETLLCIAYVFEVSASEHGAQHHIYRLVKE

Assays:
[1] = biological target: TEAD4(217-434) (Homo sapiens (Human), UniProt Q15561); test: TEAD4 FRET; format: binding; conditions: read-out: TEAD4 FRET IC50; depalmitoylated, biotinylated TEAD4(217-434), FAM labelled Probe A, 120 min at 25° C.
[2] = test system: MCF7-Tead cell line; test: TEAD reporter assay; conditions: read-out: TEAD reporter IC50; MCF7-Tead cells, luciferase activity after 24 hours
Procedure: (§1) MCF7-Tead cell line was obtained from BPS BIOSCIENCE (catalog number 60618) and was maintained in DMEM containing 10% fetal calf serum, 2 mM glutamine, and 400 μg/ml G418. Cells were grown in a humidified incubator at 37° C. with 5% CO2. Cells were distributed to flat bottom white polystyrene TC treated 384 well plates at a density of 3,500 cells/well in 30 uL. Cells were incubated for 24 hours at 37° C. with 5% CO2. Cells were acoustically dosed using an Echo 555, with compounds serially diluted in 100% DMSO. Plates were incubated for an additional 24 hours. Cells were examined for luciferase activity through the addition of 30 μL Bright-Glo luciferase (Promega catalog number E2620). Plates were incubated for 10 minutes at room temperature and luminescence was read using Tecan plate reader. The data obtained with each compound was exported to GENEDATA software to perform curve fitting analysis. IC50 value was calculated based on the concentration of compound that is required to give a 50% effect compared to DMSO control.

[3] = test system: MCF7-Luciferase cell line; test: Control reporter (MCF7-Luciferase); conditions: read-out: control reporter IC50; MCF7-Luciferase cells, luciferase activity after 24 hours
Procedure: (iii) Control Reporter (MCF7-Luciferase)
as §1, with “MCF7-Luciferase” for “MCF7-Tead”, “GENTARGET” for “BPS BIOSCIENCE”, “SC050-L)” for “60618)”, “glutamine.” for “glutamine, and 400 μg/ml G418.”, “μL.” for “uL.”

SMILES: C=CC(=O)N1CC[C@H](Nc2ncc(-c3ccc(C(F)(F)F)cn3)c3nccnc23)C1
- IC50 [1]: 0.061 µM
- IC50 [2]: 0.02 µM
- IC50 [3]: > 31.7 µM
